An excerpt weighted towards active compounds, which were near 4.2% of everything screened.
HDAC3 inh = HDAC3 deacetylase inhibitors, primary screen, biochemical, fluorescence, cell-free homogeneous; recombinant HDAC3, fluorogenic peptide/trypsin coupled; inhibition, % at 8.3 µM; 0.15% of 320,000 active; AID 2718, 2010; in the data active = inhibition above about 26%, passing the limit was not always enough; inconclusive = no clear call, values can overlap the other calls
NALP1 inh = NALP1 inflammasome inhibitors in reconstituted yeast, colorimetric, S. cerevisiae, triplicate retest. 0.61% of 280,000 active. inhibition, % at 10 µM. S. cerevisiae NALP1/ASC/caspase-1 growth, X-gal OD620, 72 h; in the data active = inhibition mostly above about 24%, no sharp cut-off; inactive = mostly below about 32%
MC4R antag cAMP = MC4R antagonists of cAMP signaling, primary screen, cell-based, TR-FRET, antagonist arm of biased-ligand search. MC4R-expressing cells, MTII-stimulated cAMP, LANCE TR-FRET. inhibition, % at 6.5 µM. 0.48% of 360,000 active. AID 540295, 2011;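 active = inhibition above its plate's cutoff, the mean of tested wells on that plate plus 3 SD, cut at about 29% in these data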;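 also: 0% = Melanotan II alone and 100% = Melanotan II plus saturating MCL0020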
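Assay system: U2OS-MC4R stable cell line; Also added: Melanotan II; Technique: Eu-cAMP/anti-cAMP TR-FRET, emission 671 nm; Times: 30-min compound, 1-h challenge, 1-h detection, room temperature.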
MC4R barr agon = MC4R agonists recruiting beta-arrestin, primary screen, cell-based, luminescence, agonist arm of biased-ligand search; activation, % at 8.9 µM; U2OS MC4R beta-arrestin complementation; percent of melanotan II response, DMSO zero; AID 540308, 2011; 0.98% of 360,000 active; Melanocortin receptor 4 (Homo sapiens), P32245;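 active = activation above a per-plate cutoff, the mean activation of sample wells on that plate plus 3 SD, cut at about 8% in these data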
UUG fidelity = modulators of start codon recognition fidelity in yeast; AID 602363; activity score, % at 18.7 µM; S. cerevisiae UUG-firefly luciferase reporter, luminescence/redox ratio; actives 0.13% (n = 350,000);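 active = replicate mean at a twofold rise or more, about +100% in these data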;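 note: firefly luciferase made from a UUG start codon reports start codon fidelity; reporter light over untreated wells divided by growth signal over untreated wells; some hits fall short of that in this replicate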
ALR inh = inhibitors of human sulfhydryl oxidase ALR; 290,000 tested, 3.8% active; inhibition, % (test concentration not listed); AID 485317; P55789; purified ALR, DTT oxidation, H2O2 HRP-luminol luminescence;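 active = mean and each replicate at 75% or more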;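 also: stock transfer was 7.5 nL into about 7.5 µL; 0% = neutral wells and 100% = wells with inactivated enzyme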
Active calls of the source: *; ? = inconclusive; · = no result given.

Amino acid sequences for entries named in this document (tags omitted).
Melanocortin receptor 4 (Homo sapiens), P32245, UniProt P32245, whole entry, looked up: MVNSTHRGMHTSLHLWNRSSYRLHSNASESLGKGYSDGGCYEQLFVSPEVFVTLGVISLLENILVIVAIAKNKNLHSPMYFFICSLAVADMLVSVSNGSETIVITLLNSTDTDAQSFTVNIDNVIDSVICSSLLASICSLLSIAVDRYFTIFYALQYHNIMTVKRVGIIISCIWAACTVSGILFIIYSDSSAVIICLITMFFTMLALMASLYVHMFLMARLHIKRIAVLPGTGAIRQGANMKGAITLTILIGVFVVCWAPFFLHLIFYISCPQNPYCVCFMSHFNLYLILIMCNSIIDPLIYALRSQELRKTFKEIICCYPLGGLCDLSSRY

Preview:
SMILES	HDAC3 inh	NALP1 inh	MC4R antag cAMP	MC4R barr agon	UUG fidelity	ALR inh
C[C@@H]1CN([C@@H](C)CO)C(=O)c2cc(NS(=O)(=O)c3ccc(Cl)cc3)ccc2O[C@@H](C)CCCCO[C@H]1CN(C)S(=O)(=O)c1cccs1	·	·	·	·	-4.2	·
C/C(=N\NC(=O)c1ccc(F)cc1)c1ccccn1	0.9	32.3	0.2	-4.8	·	0.4
Fc1ccc(N/N=C(/c2ccccc2)c2ccccn2)cc1	0.0	6.1	11.0	-0.7	·	98.7*
CCO[C@@H]1OC(C(=O)N2CCN(Cc3ccccc3)CC2)=C[C@H](c2ccc3c(c2)OCO3)[C@H]1CCCO	·	·	·	·	-9.2	·
O=C(NCC1CCCO1)c1cccc(S(=O)(=O)Nc2ccc(SC(F)F)cc2)c1 (stereo unspecified)	?	·	4.5	-1.1	26.9	98.3*

The list itself, from the start:
SMILES	HDAC3 inh	NALP1 inh	MC4R antag cAMP	MC4R barr agon	UUG fidelity	ALR inh
C[C@@H]1CN([C@@H](C)CO)C(=O)c2cc(NS(=O)(=O)c3ccc(Cl)cc3)ccc2O[C@@H](C)CCCCO[C@H]1CN(C)S(=O)(=O)c1cccs1	·	·	·	·	-4.2	·
C/C(=N\NC(=O)c1ccc(F)cc1)c1ccccn1	0.9	32.3	0.2	-4.8	·	0.4
Fc1ccc(N/N=C(/c2ccccc2)c2ccccn2)cc1	0.0	6.1	11.0	-0.7	·	98.7*
CCO[C@@H]1OC(C(=O)N2CCN(Cc3ccccc3)CC2)=C[C@H](c2ccc3c(c2)OCO3)[C@H]1CCCO	·	·	·	·	-9.2	·
O=C(NCC1CCCO1)c1cccc(S(=O)(=O)Nc2ccc(SC(F)F)cc2)c1 (stereo unspecified)	?	·	4.5	-1.1	26.9	98.3*
O=C(Nc1ccccc1F)N1C[C@@H]2[C@H](c3ccccc31)[C@H](CO)N2C(=O)c1ccc(F)cc1	·	·	·	·	-1.4	·
O=C(CSc1ncc(-c2ccc(F)cc2)[nH]1)Nc1cccc(O)c1	8.4	8.5	7.3	0.7	-15.5	99.2*
Cc1nnc(NC(=O)CSc2ncc(-c3ccccc3)[nH]2)s1	13.1	·	2.1	-0.5	-13.6	62.5
CCc1nnc(NC(=O)CSc2ncc(-c3ccccc3)[nH]2)s1	5.4	4.6	-1.7	-1.4	-16.5	99.2*
CN(C)Cc1cn(CC[C@@H]2CC[C@H](N)[C@H](CO)O2)nn1	·	·	·	·	-14.6	·
COc1cc(N)c(Cc2nccc3cc(OC)c(OC)cc23)cc1OC	2.4	1.1	15.2	-2.4	·	88.4*
O=C(NNc1ccccn1)C(=O)NNS(=O)(=O)c1ccc(Cl)cc1	-4.6	-1.1	1.6	-1.0	-29.1	98.5*
O=C(NNc1ccccn1)C(=O)NNS(=O)(=O)c1ccc(F)cc1	-3.8	-16.9	3.8	-1.8	·	99.2*
O=C(NNS(=O)(=O)c1ccc(F)cc1)c1ccccc1	4.9	-3.5	0.0	-0.3	-16.8	19.5
C[C@H](CO)N1C[C@H](C)[C@H](CN(C)S(=O)(=O)c2cccs2)OCCCC[C@H](C)Oc2ccc(NC(=O)Cc3ccccc3)cc2C1=O	·	·	·	·	-18.7	·
COc1ccccc1CNC(=O)C[C@@H]1CC[C@H]2[C@H](COc3ccc(NC(=O)Nc4ccc(F)c(F)c4)cc3C(=O)N2C)O1	·	·	·	·	-12.0	·
CCn1c(SCC(=O)c2ccc(O)c(O)c2)nnc1-c1ccc(C)cc1	1.3	-0.8	1.6	-2.1	·	67.5
CCn1c(SCC(=O)c2ccc3c(c2)Cc2ccccc2-3)nnc1-c1ccc(N)cc1	3.3	10.9	7.2	10.9*	-21.5	-2.3
CN1CCN(C(=O)c2ccccc2Nc2ccc(SC(F)F)cc2)CC1	2.4	10.4	18.0	-2.2	5.0	?
CCN1CCN(C(=O)c2ccccc2Nc2ccc(SC(F)F)cc2)CC1	9.0	-22.2	6.4	-3.1	-4.2	90.4*
CSC(SC)=C(C#N)C(=O)c1ccccc1	5.1	-8.4	38.5*	24.3*	-5.4	·
O=C(O)c1ccc(C(=O)C(=O)c2ccccc2)cc1	-9.3	·	-1.3	2.1	1.1	-9.9
O=c1c(O)c(-c2ccc(O)c(O)c2)oc2cc(O)cc(O)c12	14.3	2.8	-18.7	0.6	9.8	98.6*
C[C@@H]1O[C@@H](O[C@H]2[C@H](O)[C@@H](O)[C@H](Oc3c(-c4ccc(O)cc4)oc4cc(O)cc(O)c4c3=O)O[C@@H]2CO)[C@H](O)[C@H](O)[C@H]1O	-2.0	·	-10.9	-1.4	-3.4	13.2
O=C(O)C1OC(Oc2c(-c3ccc(O)c(O)c3)oc3cc(O)cc(O)c3c2=O)C(O)C(O)C1O (stereo unspecified)	21.6	11.5	·	·	·	99.3*
C[C@@H]1O[C@@H](OC[C@@H]2O[C@H](Oc3c(-c4ccc(O)cc4)oc4cc(O)cc(O)c4c3=O)[C@@H](O)[C@H](O)[C@H]2O)[C@H](O)[C@H](O)[C@H]1O	10.9	·	-4.0	-1.3	-0.3	80.4*
C[C@@H]1CCCCO[C@@H](CN(C)C(=O)Nc2ccc3c(c2)OCO3)[C@H](C)CN([C@H](C)CO)C(=O)c2cc(NC(=O)CCC(F)(F)F)ccc2O1	·	·	·	·	2.2	·
C[C@@H]1CN([C@@H](C)CO)C(=O)c2cc(NC(=O)Nc3ccc4c(c3)OCO4)ccc2O[C@@H](C)CCCCO[C@@H]1CN(C)C(=O)Nc1ccccc1	·	·	·	·	1.6	·
O=C(c1cccnc1)N1C[C@H]2[C@@H](c3ccccc31)[C@@H](CO)N2Cc1ccc2c(c1)OCO2	·	·	·	·	63.1	·
COc1cccc(-c2nc(CS(=O)CC(=O)NC3CCCCC3)c(C)o2)c1 (stereo unspecified)	1.5	14.3	4.3	0.4	-5.6	99.5*
COc1cccc(-c2nc(CS(=O)CC(=O)NC3CCCC3)c(C)o2)c1 (stereo unspecified)	-0.1	3.3	-2.5	0.2	-9.1	98.6*
CCNC(=O)C[C@@H]1CC[C@H]2[C@@H](COc3ccc(NC(=O)Nc4ccccc4F)cc3C(=O)N2C)O1	·	·	·	·	-4.7	·
CCc1nc2n[nH]c(N)c2c2c1CSC(C)(C)C2	5.1	3.3	-7.7	-1.0	·	86.7*
CCCC(=O)Nc1ccc2c(c1)OC[C@@H](C)N(Cc1ccccc1)C[C@H](C)[C@H](OC)CN(C)C2=O	·	·	·	·	-10.8	·
COc1ccc(NC(=O)N(C)C[C@@H]2Oc3ccc(NC(=O)CCC(F)(F)F)cc3CC(=O)N([C@@H](C)CO)C[C@H]2C)cc1	·	·	·	·	7.9	·
COc1ccc(N2CCN(CCNC(=O)CCC(=O)NNc3nc4ccccc4c4nc(C)nn34)CC2)cc1	-3.0	17.3	4.5	-1.3	-30.1	95.8*
Cc1nc2c3ccccc3nc(NNC(=O)CCC(=O)NC3CCCC3)n2n1	4.3	6.2	0.6	-1.7	·	78.5*
Cc1nc2c3ccccc3nc(NNC(=O)CCC(=O)NC(C)C)n2n1	8.6	9.0	4.8	-2.0	·	15.7
CC1=C/C(=N\Nc2ccccc2[N+](=O)[O-])CC(C)(C)C1	-1.5	7.7	7.2	-1.1	-8.2	98.3*
O=[N+]([O-])c1ccccc1N/N=C/c1ccccc1	4.5	5.6	17.5	2.7	-17.5	-7.4
CC(C)NC(=O)N(C)C[C@H]1Oc2ncc(-c3ccc(C(=O)N(C)C)cc3)cc2C(=O)N([C@@H](C)CO)C[C@H]1C	·	·	·	·	0.4	·
CCCCC1(C)OC(=O)C(=Cc2ccc(N(CC)CC)cc2)C(=O)O1 (stereo unspecified)	10.3	2.0	-3.3	-1.7	-5.3	96.6*
COCC(=O)N[C@@H]1CC[C@H](CC(=O)N2CCCCC2)O[C@@H]1CO	·	·	·	·	3.0	·
CCCCOC(=O)Cn1c(=O)n(CC(=O)OCCCC)c2ccccc21	-2.7	2.4	3.3	-0.4	3.8	-3.5
